Assay results: US9221831B2, “Buprenorphine analogs” (dated 2015)

Sequences of proteins named here, by UniProt entry; tags and fusion partners are left off.
UniProt P41146, whole entry: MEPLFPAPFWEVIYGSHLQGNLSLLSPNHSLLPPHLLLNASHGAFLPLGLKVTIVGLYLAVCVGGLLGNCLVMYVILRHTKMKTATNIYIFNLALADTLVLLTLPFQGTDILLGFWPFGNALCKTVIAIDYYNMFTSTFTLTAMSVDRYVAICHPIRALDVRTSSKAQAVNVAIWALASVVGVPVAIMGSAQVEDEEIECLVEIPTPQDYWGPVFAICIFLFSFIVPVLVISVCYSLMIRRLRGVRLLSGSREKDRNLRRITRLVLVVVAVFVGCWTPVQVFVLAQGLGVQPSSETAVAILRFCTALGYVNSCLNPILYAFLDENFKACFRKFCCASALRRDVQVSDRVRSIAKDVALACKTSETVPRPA
UniProt P41145, whole entry: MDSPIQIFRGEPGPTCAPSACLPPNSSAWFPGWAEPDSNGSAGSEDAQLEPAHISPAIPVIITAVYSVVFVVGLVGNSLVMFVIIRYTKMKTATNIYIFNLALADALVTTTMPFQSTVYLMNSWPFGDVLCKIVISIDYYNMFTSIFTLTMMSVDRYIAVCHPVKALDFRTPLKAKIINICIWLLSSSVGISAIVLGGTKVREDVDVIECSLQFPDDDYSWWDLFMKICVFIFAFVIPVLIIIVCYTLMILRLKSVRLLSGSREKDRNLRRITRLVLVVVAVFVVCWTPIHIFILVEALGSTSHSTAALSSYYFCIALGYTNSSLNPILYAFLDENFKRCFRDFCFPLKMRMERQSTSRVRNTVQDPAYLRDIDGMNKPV
UniProt P35372, whole entry: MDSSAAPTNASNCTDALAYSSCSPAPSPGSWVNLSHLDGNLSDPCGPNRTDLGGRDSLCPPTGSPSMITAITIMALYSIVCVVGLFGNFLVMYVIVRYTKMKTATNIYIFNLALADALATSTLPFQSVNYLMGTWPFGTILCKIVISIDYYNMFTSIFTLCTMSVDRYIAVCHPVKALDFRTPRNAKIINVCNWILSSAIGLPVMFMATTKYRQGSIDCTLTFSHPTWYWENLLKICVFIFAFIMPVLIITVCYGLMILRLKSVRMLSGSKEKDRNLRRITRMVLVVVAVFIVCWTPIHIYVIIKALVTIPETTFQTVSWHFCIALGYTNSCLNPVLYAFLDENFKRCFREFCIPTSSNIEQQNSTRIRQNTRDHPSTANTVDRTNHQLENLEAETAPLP

Experiments:
[1] = biological target: T1, human opioid receptor-like (ORL-1) (Homo sapiens (Human), UniProt P41146); experiment: ORL-1 receptor functional assay ([35S]GTPγS); conditions: [35S]GTPγS functional assay
[2] = biological target: T2, δ opioid receptor (Homo sapiens (Human), UniProt P41143); experiment: δ-opioid receptor functional assay ([35S]GTPγS); conditions: [35S]GTPγS functional assay
[3] = biological target: κ opioid receptor (Homo sapiens (Human), UniProt P41145); experiment: κ-opioid receptor functional assay ([35S]GTPγS); conditions: [35S]GTPγS functional assay
[4] = biological target: T2, δ opioid receptor; experiment: δ-opioid receptor binding assay ([3H]-Naltrindole dose-displacement)
[5] = biological target: T1, human opioid receptor-like (ORL-1); experiment: ORL-1 receptor binding assay ([3H]-nociceptin)
[6] = biological target: μ-opioid receptor (Homo sapiens (Human), UniProt P35372); experiment: μ-opioid receptor functional assay ([35S]GTPγS); conditions: [35S]GTPγS functional assay

Row | SMILES | GTPγS ORL-1 Emax [1] | GTPγS Opioid Receptor δ Emax [2] | GTPγS Opioid Receptor κ Emax [3] | Binding Affinity, Opioid Receptor δ [4] | Binding Affinity, ORL-1 [5] | GTPγS Opioid Receptor μ Emax [6] | GTPγS Opioid Receptor μ EC50 [6]
1 | CO[C@]12CC[C@@]3(C[C@@H]1COCc1ccccc1)[C@H]1Cc4ccc(O)c5c4[C@@]3(CCN1)[C@H]2O5 | 68.50% | 115.33% | 96.00% |  |  |  | 
2 | COc1ccc2c3c1O[C@H]1[C@@]4(OC)CC[C@@]5(C[C@@H]4CSc4nncs4)[C@@H](C2)N(C)CC[C@]315 |  |  | 38.33% | Inactive | Inactive |  | 
3 | COc1ccc2c3c1O[C@H]1[C@@]4(OC)CC[C@@]5(C[C@@H]4COCc4ccccc4)[C@@H](C2)NCC[C@]315 | 38.00% | 115.33% | 89.67% |  |  |  | 
4 | CO[C@]12CC[C@@]3(C[C@@H]1COCc1ccccc1C)[C@H]1Cc4ccc(OCCO)c5c4[C@@]3(CCN1C)[C@H]2O5 | 65.25% | 74.67% | 121.67% |  |  |  | 
5 | COCCOCCOCCOCCOCCOc1ccc2c3c1O[C@H]1[C@@]4(OC)CC[C@@]5(C[C@@H]4COCc4ccccc4)[C@@H](C2)N(CC2CC2)CC[C@]315 |  | 81.00% | 102.67% |  | Inactive | 56.00% | 
6 | COC(=O)COc1ccc(COC[C@H]2C[C@@]34CC[C@]2(OC)[C@@H]2Oc5c(OC)ccc6c5[C@@]23CCN(CC2CC2)[C@@H]4C6)cc1 |  | 47.67% | 11.33% |  | Inactive |  | Inactive
7 | C=Cc1ccc2c3c1O[C@H]1[C@@]4(OC)CC[C@@]5(C[C@@H]4COCc4ccccc4)[C@@H](C2)N(C)CC[C@]315 | 35.67% | 87.67% | 82.67% |  |  |  | 
8 | COc1ccc2c3c1O[C@H]1[C@@]4(OC)CC[C@@]5(C[C@@H]4CNCc4ccccc4)[C@@H](C2)N(CC2CC2)CC[C@]315 | 99.00% | 82.25% | 98.25% |  |  | 53.50% | 
9 | COc1ccc2c3c1O[C@H]1[C@@]4(OC)CC[C@@]5(C[C@@H]4COc4ccc(-n6ccnc6)cc4)[C@@H](C2)N(CC2CC2)CC[C@]315 |  | 70.33% | 45.33% |  | Inactive |  | Inactive
10 | CO[C@]12CC[C@@]3(C[C@@H]1COCc1ccccc1)[C@H]1Cc4ccc(F)c5c4[C@@]3(CCN1CC1CC1)[C@H]2O5 | 37.00% | 108.00% | 85.33% |  |  | 20.33% | 
11 | CO[C@]12CC[C@@]3(C[C@@H]1COCc1ccccc1)[C@H]1Cc4ccc(F)c5c4[C@@]3(CCN1C)[C@H]2O5 | 50.00% | 76.00% | 77.33% |  |  |  | 
